## Apparent affinities of Ab-91 variants for a coronavirus HR2 peptide

Values reported by Engelhart et al. 2022, doi:10.1038/s41597-022-01779-4 (FLAb copy).

All variants were tested on one target, the spike HR2 peptide PDVDLGDISGINAS (SARS-CoV-2).

Parent scFv Ab-91: VL joined to VH by the linker GGGGSGGGGSGGGGS. Changes lie in the heavy chain CDRs alone.
VL: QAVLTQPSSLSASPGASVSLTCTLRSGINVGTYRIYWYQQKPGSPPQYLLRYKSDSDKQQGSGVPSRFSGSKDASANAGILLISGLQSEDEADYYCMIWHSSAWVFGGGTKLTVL
VH: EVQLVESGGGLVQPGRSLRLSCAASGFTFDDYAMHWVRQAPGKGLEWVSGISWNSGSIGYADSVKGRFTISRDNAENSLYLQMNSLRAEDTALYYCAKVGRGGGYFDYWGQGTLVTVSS

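The parent was found by panning a naive human phage display library on the peptide. Library AAYL51 holds single substitutions and randomly drawn double and triple substitutions in the CDRs. Affinity was read by AlphaSeq, a pooled yeast mating assay with surface-displayed partners. Pairs that bind mate more often; barcode pairs of the diploids are counted by sequencing. Read counts were normalised to the haploid input and turned into Kd by a linear fit to BCL2-family pairs of known affinity, for each replicate. There are three technical replicates.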

Each variant is given by its three heavy chain CDRs, as the data file delimits them; those of the parent are GFTFDDYAMH, GISWNSGSIGYADSVK, VGRGGGYFDY. All variants listed here change Y60 of the VH, counted from its first residue. The read-out is the apparent dissociation constant on a log10 scale (nM): the lower, the stronger. Averages over replicates are reported, and they cover detected replicates only. "nd" marks a missing value. The strain was present, yet no cells mated with the target were sequenced in any replicate, which points to weak or no binding. In this assay the parent's reference entry averaged 1.86; its copy inside this library read 0.88. Empty control strains, which show no peptide, gave a signal in 21% of pairings with library AAYL51; the median was 4.54 and 95% of these signals were weaker than 3.26. No background was subtracted. For each scFv, signals with the empty controls are counted beside the result.

Variant GFTFDLYAMH, GISWNSGSIGNADSVK, LGRGGGYFDY gave 4.44 (1 of 3 replicates; controls 0 of 9).
Variant GFTFDGYAMH, GISWNSGSIGSADSVK, VGRGGGYHDY gave nd (0 of 3 replicates; controls 0 of 9).
Variant GFTFDDYAMH, GISWNSGSIGAADSVK, VGRGGGVFDY gave 2.23 (3 of 3 replicates; controls 0 of 9).
Variant GFTFDDYAMH, GISWNSGSIGVADSVK, VGRGTRYFDY gave nd (0 of 3 replicates; controls 1 of 9).
Variant GFTFDDYAMH, GYSWNSGSIGDADSVK, VGRGGGYFVY gave nd (0 of 3 replicates; controls 0 of 9).
Variant GFTFDDYAMH, WISWNSGSIGGADSVK, VGGGGGYFDY gave nd (0 of 3 replicates; controls 0 of 9).
Variant GFTFDDYAMH, GISWNSGSIGQADSVK, RSRGGGYFDY gave 4.64 (3 of 3 replicates; controls 7 of 9).
Variant GFTFDDYAMH, IISWNSGSIGAADSVK, VGRGGGKFDY gave 5.00 (1 of 3 replicates; controls 2 of 9).
Variant GFTFDDYAMH, GISWNSGKIGSADSVK, VGRGKGYFDY gave 3.33 (1 of 3 replicates; controls 2 of 9).
Variant GFTFDDYAMH, GISWNSGSIFTADSVK, VGRGCGYFDY gave 4.03 (1 of 3 replicates; controls 2 of 9).
Variant GFTFDDYAMH, GISWNSGSIGFADSVK, CGRGRGYFDY gave 5.38 (2 of 3 replicates; controls 2 of 9).
Variant HFTFDDYAMH, GISWNSGSIGDADSVK, VGRCGGYFDY gave 4.30 (1 of 3 replicates; controls 4 of 9).
Variant GFTFDVYAMH, GISWNSGSIGAADSAK, VGRGGGYFDY gave 3.96 (1 of 3 replicates; controls 1 of 9).
Variant GFTFDDYAMH, GISWNVGSIGFADSVK, SGRGGGYFDY gave 4.96 (3 of 3 replicates; controls 0 of 9).
Variant GFTFDDYAPT, GISWNSGSIGGADSVK, VGRGGGYFDY gave nd (0 of 3 replicates; controls 0 of 9).
Variant GFTFDDYAMH, GISWNSGSIGWADSVK, VQRGGGWFDY gave 3.60 (2 of 3 replicates; controls 0 of 9).
Variant GFTFDDYAQH, GISWNSGSIGRADSVK, VGRGCGYFDY gave nd (0 of 3 replicates; controls 3 of 9).
Variant GFTFDDYAMH, GISWNSGSIGSGDSVK, VGRGGGYFLY gave nd (0 of 3 replicates; controls 1 of 9).
Variant GSTFDDYAMH, GISWNSGSIGTADSVQ, VGRGGGYFDY gave 4.02 (1 of 3 replicates; controls 4 of 9).
Variant GFTFDIYAMH, GISWHSGSIGAADSVK, VGRGGGYFDY gave 4.47 (1 of 3 replicates; controls 0 of 9).
Variant GFTFDCYAMH, GISWNSGSIGEADSIK, VGRGGGYFDY gave 4.33 (1 of 3 replicates; controls 3 of 9).
Variant GFTFDDYAMH, GISWNSGSIGTADSVK, RGRGGGYFYY gave 4.24 (1 of 3 replicates; controls 1 of 9).
Variant GFTFDNYAMH, GISWNSGSIGRADSVK, VGRGGGYFDY gave 3.45 (2 of 3 replicates; controls 0 of 9).
Variant GFTFDDYAMH, GIHWNSGSIGLADSVK, VGRSGGYFDY gave 5.05 (1 of 3 replicates; controls 2 of 9).
Variant GFTIDDYAMH, GISWNSGSIGIADSVG, VGRGGGYFDY gave 3.70 (3 of 3 replicates; controls 1 of 9).
Variant GFTFDDYAMF, GISWNSGSIGHADTVK, VGRGGGYFDY gave 6.31 (1 of 3 replicates; controls 4 of 9).
Variant GFTFMDYAMH, GISWNSGSIGWAGSVK, VGRGGGYFDY gave nd (0 of 3 replicates; controls 1 of 9).
Variant GFTFDPYAMH, GISWNSGSIGIADSVK, VRRGGGYFDY gave 4.24 (1 of 3 replicates; controls 2 of 9).
Variant GFTFDDYAMH, GISCNSGSIGAADSVK, VGRGGGYFRY gave nd (0 of 3 replicates; controls 0 of 9).
Variant GFTFDDDAMH, GISWNSGSIGFADSVK, VGRGGDYFDY gave 4.81 (2 of 3 replicates; controls 1 of 9).
Variant GFTFDDYAMH, GISWNSGSIGHADSVK, VGRGYGYFDY gave 4.72 (3 of 3 replicates; controls 9 of 9).
Variant GFTFDDYAAH, GISWNSGSIGIADSVK, VGRGLGYFDY gave 4.08 (1 of 3 replicates; controls 4 of 9).
Variant GFTFDDYAMH, GISWNSGSIGVAVSVK, VGRGSGYFDY gave nd (0 of 3 replicates; controls 0 of 9).
Variant GFTFDDYAMH, GQSWNSGMIGMADSVK, VGRGGGYFDY gave nd (0 of 3 replicates; controls 2 of 9).
Variant GFTFDDYRMH, GISWNSGSIGEADSVK, VGRGGGYFDY gave nd (0 of 3 replicates; controls 2 of 9).
Variant GGTFDDYAMH, GISWASGSIGVADSVK, VGRGGGYFDY gave 5.19 (2 of 3 replicates; controls 4 of 9).
Variant GFTFDDYAMH, GISWNSCSHGMADSVK, VGRGGGYFDY gave 1.18 (1 of 3 replicates; controls 0 of 9).
Variant GFTFDDYAME, GISWNSGSIGHADSVK, VGRGGGYFDY gave nd (0 of 3 replicates; controls 0 of 9).
Variant GFTFDDYAMH, GIRWNSGSIGEADSVK, VGQGGGYFDY gave 3.95 (1 of 3 replicates; controls 0 of 9).
Variant GFTFDWYAMH, GISWNSGSIGTADSVK, VGRGPGYFDY gave 4.72 (1 of 3 replicates; controls 1 of 9).
Variant GGTFDDYAMH, GISWNSGSIGFADSVK, VGRSGGYFDY gave 5.05 (3 of 3 replicates; controls 7 of 9).
Variant GFTFDDYAMH, GISWNSGSIGQAPSVK, VGRGGGDFDY gave 4.37 (1 of 3 replicates; controls 4 of 9).
Variant GFTFDDYAMH, GISWNSGSIGSADSVK, VGPGGGYFDY gave 2.57 (3 of 3 replicates; controls 4 of 9).
Variant GFTFNDYAMH, GISWNSGSIGRADSFK, VGRGGGYFDY gave 4.79 (2 of 3 replicates; controls 4 of 9).
Variant GFTFSDYAMH, GISWNSGSIDRADSVK, VGRGGGYFDY gave nd (0 of 3 replicates; controls 1 of 9).
Variant GFTFDDYAMH, GISWNSESIGSEDSVK, VGRGGGYFDY gave 4.66 (3 of 3 replicates; controls 5 of 9).
Variant GFTMDDYAMH, GISWNSGLIGWADSVK, VGRGGGYFDY gave nd (0 of 3 replicates; controls 0 of 9).

Extract of 3 entries:

CDR-H1	CDR-H2	CDR-H3	mean, log10 nM	replicates with signal	control signals
GFTFDNYAMH	GISWNSGSIGRADSVK	VGRGGGYFDY	3.45	2 of 3	0 of 9
GFTFDIYAMH	GISWHSGSIGAADSVK	VGRGGGYFDY	4.47	1 of 3	0 of 9
GFTFDDYAMH	GISWNSGSIGWADSVK	VQRGGGWFDY	3.60	2 of 3	0 of 9